One may read the Kd as the equilibrium constant for the complex coming apart. Lower therefore signals tighter binding.

Amino acid sequences for entries named in this document (tags omitted). A change or cut given only in a name is not applied to a line headed by its entry.
UniProt P63045: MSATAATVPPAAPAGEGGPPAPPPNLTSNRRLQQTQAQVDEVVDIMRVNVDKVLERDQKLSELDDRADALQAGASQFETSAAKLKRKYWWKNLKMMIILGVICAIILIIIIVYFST

In this experiment the target is SNARE complex bearing five mutations in SNAP-25 (K40A/D51A/E52A/E55A/D166A) (rat, UniProt P63045 28-89; P32851 191-256; P60881 7-83; P60881 140-204, K40A | D51A | E52A | E55A | D166A). The experiment is described as follows: ITC. For orientation: ITC needs no label: the signal is the heat of the interaction.

RKAKYAKMEAEREVMRQGIRDKYGIK (domain or fragment) [Complexin-1 fragment spanning residues 48-73] returned a Kd of 75.8 nM. This lies in the double-digit nanomolar range.

Values taken from PMC9811660 (2022).
